In article PMC2640231 (Journal of molecular biology, 2008):

Target: T1, Spc25p (yeast, UniProt P40014 1-221)
T1 sequence (looked up): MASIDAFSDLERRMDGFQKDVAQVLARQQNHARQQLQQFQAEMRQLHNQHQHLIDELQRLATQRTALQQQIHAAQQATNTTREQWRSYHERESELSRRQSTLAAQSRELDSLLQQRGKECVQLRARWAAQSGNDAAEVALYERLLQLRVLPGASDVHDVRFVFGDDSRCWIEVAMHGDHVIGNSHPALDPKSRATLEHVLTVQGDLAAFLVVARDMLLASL
Assay: pull-down + SEC

B1: Spc24p (natural protein, yeast, UniProt Q04477 1-213, looked up)
chain: MSQKDNLLDNPVEFLKEVRESFDIQQDVDAMKRIRHDLDVIKEESEARISKEHSKVSESNKKLNAERINVAKLEGDLEYTNEESNEFGSKDELVKLLKDLDGLERNIVSLRSELDEKMKLYLKDSEIISTPNGSKIKAKVIEPELEEQSAVTPEANENILKLKLYRSLGVILDLENDQVLINRKNDGNIDILPLDNNLSDFYKTKYIWERLGK
  binding result: binds
